Key:
[1] = target: T1, C. elegans N-AChR (ACR-16) (Caenorhabditis elegans, UniProt P48180); assay: Two-electrode voltage-clamp, Cel-N-AChR in Xenopus oocytes; assay type: cell-based; conditions: normalized to 1 mM ACh, -60 mV
T1 sequence (P48180 20-498): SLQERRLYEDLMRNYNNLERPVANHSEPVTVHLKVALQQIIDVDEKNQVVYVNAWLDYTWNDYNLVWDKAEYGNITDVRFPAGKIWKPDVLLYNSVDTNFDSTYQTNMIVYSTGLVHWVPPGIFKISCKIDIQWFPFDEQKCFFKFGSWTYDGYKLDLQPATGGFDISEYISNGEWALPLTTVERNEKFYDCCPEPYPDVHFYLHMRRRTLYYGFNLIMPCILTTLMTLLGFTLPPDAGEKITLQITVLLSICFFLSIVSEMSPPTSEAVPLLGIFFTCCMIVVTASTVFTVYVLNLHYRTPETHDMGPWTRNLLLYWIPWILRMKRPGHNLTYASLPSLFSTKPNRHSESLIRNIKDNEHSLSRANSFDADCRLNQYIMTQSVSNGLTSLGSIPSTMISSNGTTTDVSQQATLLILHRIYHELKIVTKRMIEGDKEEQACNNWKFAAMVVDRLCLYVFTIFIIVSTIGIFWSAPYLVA

[2] = target: T2, P. equorum N-AChR (ACR-16) (Parascaris equorum, UniProt A0A3S9VMQ8); assay: Two-electrode voltage-clamp, Peq-N-AChR in Xenopus oocytes; assay type: cell-based; conditions: normalized to 1 mM ACh, -60 mV
T2 sequence (A0A3S9VMQ8 25-504): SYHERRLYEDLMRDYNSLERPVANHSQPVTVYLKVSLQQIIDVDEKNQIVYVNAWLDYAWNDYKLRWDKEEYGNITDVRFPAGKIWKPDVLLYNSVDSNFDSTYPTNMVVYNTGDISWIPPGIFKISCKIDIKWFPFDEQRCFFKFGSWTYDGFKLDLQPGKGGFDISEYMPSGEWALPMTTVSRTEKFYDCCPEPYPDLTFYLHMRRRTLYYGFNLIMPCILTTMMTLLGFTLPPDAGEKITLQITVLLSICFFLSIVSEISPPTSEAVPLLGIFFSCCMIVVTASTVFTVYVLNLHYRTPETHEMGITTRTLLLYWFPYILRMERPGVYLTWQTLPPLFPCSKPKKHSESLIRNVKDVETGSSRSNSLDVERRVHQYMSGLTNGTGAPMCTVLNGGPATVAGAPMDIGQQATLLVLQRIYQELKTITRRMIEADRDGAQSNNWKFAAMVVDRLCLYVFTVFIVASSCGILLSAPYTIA

(±)-nornicotine
EC50 [1]: 67.7 ± 6.6 µM | EC50 [2]: 34.9 ± 7.2 µM

Source: article PMC6287576 (International Journal for Parasitology: Drugs and Drug …, 2018)
